Key:
[1] = Half life in ICR mouse at 5 mg/kg, po by LC-MS/MS analysis; assay type: ADME, organism-based; details: in vivo
[2] = target: Poly [ADP-ribose] polymerase 1 (Homo sapiens, UniProt P09874); assay: Inhibition of ARTD1 (unknown origin) measured after 30 mins in presence of NAD+ by fluorescence assay
[3] = target: Poly [ADP-ribose] polymerase 2 (Homo sapiens, UniProt Q9UGN5); assay: Inhibition of ARTD2 (unknown origin) measured after 30 mins in presence of NAD+ by fluorescence assay
[4] = target: Protein mono-ADP-ribosyltransferase PARP4 (Homo sapiens, UniProt Q9UKK3)
[5] = target: T1, Protein mono-ADP-ribosyltransferase PARP15 (Homo sapiens, UniProt Q460N3)
T1 sequence (Q460N3 whole entry): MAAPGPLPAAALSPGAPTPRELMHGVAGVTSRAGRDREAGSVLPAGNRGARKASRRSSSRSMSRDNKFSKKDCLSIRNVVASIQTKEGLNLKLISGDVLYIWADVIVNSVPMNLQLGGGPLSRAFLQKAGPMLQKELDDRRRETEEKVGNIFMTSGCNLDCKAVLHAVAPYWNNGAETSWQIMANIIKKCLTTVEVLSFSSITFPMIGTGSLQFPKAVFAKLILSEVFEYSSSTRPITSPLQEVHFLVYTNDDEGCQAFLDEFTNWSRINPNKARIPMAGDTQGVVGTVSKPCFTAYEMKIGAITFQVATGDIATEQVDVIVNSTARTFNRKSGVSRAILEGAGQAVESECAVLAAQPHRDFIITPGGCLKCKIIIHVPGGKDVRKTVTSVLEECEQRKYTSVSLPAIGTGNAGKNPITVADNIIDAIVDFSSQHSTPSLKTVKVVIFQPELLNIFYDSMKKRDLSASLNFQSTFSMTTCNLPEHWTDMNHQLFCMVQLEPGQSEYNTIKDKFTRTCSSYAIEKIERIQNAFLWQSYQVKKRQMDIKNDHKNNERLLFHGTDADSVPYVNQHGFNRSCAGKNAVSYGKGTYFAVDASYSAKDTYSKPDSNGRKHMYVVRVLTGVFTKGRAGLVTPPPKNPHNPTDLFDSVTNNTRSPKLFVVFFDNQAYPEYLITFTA

Chains of the proteins cited; added tags and fusions are not shown. Lines headed by an entry give the natural chain unless they say otherwise; changes in a name come on top.
UniProt P09874, whole entry: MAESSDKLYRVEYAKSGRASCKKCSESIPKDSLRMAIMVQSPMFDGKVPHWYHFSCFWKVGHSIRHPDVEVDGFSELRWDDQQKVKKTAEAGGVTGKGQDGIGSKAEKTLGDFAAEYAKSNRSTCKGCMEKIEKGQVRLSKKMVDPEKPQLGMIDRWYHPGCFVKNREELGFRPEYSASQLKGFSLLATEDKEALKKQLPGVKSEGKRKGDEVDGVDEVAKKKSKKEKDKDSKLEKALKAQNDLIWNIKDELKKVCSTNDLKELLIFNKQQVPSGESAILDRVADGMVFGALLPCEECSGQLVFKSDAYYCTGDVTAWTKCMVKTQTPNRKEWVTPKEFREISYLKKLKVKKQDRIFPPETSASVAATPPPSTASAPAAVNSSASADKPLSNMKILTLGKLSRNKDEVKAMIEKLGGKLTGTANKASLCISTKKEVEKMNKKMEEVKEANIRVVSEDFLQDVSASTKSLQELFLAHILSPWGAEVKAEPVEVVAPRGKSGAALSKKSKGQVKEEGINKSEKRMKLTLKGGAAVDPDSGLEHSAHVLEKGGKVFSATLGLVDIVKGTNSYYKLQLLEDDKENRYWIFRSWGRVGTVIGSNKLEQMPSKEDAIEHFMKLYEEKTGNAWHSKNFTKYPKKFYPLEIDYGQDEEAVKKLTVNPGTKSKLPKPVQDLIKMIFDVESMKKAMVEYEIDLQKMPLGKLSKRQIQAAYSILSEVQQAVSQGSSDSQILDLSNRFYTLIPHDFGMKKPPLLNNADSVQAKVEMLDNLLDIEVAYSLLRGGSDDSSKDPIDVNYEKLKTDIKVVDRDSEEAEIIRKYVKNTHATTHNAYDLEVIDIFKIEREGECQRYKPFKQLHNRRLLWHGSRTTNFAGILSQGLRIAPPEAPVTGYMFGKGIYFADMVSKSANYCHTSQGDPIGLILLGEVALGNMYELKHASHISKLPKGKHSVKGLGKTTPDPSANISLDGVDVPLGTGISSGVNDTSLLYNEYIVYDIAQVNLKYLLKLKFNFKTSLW
UniProt Q9UGN5: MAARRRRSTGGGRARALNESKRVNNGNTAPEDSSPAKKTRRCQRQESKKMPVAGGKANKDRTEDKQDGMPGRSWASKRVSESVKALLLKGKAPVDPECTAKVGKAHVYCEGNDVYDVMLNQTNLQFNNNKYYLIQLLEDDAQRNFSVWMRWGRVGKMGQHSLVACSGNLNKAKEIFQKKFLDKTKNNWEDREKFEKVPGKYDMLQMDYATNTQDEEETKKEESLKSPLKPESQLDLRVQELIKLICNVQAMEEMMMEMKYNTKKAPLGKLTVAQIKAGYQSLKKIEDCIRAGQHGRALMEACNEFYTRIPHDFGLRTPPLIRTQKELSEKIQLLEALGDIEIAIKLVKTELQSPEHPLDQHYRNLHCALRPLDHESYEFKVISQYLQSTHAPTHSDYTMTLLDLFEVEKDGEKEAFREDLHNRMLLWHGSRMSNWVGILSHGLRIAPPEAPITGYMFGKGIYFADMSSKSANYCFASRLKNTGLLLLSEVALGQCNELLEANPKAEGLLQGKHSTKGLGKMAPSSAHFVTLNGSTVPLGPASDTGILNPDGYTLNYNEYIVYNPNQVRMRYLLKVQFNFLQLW
UniProt Q9UKK3: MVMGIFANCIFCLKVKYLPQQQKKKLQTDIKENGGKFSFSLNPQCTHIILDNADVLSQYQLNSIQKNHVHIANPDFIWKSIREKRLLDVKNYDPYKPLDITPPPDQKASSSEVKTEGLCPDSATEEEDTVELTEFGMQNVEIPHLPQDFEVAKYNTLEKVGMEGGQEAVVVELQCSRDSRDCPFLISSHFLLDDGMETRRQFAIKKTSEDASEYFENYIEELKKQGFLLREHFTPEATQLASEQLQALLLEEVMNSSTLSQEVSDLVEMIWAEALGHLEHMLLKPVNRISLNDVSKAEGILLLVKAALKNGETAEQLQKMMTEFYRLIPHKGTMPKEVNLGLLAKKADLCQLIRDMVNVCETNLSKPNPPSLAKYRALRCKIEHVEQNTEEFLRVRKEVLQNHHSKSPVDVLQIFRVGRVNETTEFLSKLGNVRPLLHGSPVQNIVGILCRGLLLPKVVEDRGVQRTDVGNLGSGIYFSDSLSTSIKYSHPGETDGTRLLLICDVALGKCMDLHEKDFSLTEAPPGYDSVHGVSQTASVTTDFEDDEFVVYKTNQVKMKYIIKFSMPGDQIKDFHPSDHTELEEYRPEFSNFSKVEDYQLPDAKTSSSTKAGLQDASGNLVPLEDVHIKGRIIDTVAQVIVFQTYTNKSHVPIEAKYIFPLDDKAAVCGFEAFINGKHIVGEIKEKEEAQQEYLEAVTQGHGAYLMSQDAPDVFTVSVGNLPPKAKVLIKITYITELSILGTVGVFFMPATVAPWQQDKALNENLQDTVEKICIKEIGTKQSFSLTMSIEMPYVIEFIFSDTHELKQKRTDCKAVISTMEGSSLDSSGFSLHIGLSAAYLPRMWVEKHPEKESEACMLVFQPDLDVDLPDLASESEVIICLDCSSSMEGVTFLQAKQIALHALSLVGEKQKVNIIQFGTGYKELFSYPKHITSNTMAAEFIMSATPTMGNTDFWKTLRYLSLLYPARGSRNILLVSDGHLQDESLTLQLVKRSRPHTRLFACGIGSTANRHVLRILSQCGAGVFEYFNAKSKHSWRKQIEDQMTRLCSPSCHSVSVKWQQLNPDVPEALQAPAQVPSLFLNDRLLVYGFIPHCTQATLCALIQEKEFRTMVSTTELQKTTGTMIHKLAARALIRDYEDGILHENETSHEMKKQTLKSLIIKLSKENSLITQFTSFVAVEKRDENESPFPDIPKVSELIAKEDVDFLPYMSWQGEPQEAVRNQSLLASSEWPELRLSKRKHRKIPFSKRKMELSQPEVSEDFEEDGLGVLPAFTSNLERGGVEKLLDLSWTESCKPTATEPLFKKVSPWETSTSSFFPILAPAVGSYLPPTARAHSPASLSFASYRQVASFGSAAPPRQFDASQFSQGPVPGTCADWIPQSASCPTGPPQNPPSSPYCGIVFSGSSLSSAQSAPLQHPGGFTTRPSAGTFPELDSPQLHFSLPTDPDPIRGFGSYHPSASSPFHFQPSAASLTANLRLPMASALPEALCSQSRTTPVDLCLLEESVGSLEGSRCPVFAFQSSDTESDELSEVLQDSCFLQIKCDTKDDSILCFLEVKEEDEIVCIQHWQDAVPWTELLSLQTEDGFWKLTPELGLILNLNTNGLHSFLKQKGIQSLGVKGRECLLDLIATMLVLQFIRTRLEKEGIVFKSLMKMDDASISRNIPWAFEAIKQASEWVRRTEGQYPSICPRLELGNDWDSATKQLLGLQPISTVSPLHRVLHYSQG
UniProt Q460N5, whole entry: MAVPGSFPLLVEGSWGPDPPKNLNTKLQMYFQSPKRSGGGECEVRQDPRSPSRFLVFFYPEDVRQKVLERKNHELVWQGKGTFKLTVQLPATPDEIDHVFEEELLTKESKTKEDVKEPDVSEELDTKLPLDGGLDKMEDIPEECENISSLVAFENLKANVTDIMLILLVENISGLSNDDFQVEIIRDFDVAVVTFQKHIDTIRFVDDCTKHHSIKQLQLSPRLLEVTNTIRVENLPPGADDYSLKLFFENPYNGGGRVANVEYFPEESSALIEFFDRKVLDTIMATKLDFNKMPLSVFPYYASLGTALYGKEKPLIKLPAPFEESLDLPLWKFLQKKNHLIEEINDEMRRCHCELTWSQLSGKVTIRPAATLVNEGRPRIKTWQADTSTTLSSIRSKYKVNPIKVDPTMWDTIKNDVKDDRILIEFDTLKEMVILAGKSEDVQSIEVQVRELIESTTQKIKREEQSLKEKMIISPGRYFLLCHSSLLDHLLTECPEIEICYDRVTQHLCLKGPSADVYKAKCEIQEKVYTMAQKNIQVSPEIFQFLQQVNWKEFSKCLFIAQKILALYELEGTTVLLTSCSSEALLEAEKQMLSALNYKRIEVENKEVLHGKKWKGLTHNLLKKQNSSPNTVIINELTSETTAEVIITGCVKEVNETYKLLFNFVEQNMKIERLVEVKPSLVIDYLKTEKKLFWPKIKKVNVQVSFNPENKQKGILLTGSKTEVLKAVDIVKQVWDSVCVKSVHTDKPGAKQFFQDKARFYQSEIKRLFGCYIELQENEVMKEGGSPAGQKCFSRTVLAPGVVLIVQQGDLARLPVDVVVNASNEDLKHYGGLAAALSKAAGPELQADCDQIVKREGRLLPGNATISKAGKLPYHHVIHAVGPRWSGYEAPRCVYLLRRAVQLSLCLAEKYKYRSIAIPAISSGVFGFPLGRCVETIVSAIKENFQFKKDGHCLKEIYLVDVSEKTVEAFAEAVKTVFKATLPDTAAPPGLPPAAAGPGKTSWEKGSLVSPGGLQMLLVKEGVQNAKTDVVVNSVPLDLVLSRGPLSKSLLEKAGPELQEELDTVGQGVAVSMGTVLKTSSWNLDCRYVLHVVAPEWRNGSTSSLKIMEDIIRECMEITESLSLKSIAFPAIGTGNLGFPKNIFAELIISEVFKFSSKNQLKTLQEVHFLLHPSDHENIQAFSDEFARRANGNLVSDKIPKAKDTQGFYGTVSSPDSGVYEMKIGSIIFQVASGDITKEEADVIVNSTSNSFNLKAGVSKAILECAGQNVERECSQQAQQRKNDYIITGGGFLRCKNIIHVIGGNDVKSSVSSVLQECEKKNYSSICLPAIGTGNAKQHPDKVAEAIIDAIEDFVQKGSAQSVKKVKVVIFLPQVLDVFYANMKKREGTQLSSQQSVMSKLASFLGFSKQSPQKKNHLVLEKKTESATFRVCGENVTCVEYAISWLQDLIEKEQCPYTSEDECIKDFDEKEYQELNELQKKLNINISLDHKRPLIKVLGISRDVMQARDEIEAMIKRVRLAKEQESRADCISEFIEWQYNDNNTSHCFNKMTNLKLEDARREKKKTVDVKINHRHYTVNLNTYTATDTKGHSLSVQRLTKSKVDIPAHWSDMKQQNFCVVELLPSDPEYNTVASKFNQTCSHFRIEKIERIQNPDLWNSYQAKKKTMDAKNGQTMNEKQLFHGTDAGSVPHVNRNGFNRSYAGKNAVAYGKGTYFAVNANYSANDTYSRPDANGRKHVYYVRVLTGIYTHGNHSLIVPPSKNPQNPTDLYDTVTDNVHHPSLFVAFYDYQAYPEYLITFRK
UniProt P08684, whole entry: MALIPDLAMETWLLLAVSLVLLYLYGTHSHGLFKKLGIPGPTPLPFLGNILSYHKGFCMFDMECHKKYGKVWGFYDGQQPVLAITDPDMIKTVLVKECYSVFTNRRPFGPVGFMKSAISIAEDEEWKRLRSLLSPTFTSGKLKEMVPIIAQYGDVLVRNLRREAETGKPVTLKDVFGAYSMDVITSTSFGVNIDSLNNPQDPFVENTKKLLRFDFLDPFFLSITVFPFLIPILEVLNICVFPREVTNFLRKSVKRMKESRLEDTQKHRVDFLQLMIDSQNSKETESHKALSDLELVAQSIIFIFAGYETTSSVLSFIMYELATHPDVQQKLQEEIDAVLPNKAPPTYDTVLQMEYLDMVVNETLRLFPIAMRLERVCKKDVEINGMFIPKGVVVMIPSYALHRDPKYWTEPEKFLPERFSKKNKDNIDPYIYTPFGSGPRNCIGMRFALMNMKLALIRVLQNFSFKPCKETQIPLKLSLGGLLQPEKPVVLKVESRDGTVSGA

[6] = target: Protein mono-ADP-ribosyltransferase PARP14 (Homo sapiens, UniProt Q460N5)
[7] = target: T2, Protein mono-ADP-ribosyltransferase PARP10 (Homo sapiens, UniProt Q53GL7)
T2 sequence (Q53GL7 whole entry): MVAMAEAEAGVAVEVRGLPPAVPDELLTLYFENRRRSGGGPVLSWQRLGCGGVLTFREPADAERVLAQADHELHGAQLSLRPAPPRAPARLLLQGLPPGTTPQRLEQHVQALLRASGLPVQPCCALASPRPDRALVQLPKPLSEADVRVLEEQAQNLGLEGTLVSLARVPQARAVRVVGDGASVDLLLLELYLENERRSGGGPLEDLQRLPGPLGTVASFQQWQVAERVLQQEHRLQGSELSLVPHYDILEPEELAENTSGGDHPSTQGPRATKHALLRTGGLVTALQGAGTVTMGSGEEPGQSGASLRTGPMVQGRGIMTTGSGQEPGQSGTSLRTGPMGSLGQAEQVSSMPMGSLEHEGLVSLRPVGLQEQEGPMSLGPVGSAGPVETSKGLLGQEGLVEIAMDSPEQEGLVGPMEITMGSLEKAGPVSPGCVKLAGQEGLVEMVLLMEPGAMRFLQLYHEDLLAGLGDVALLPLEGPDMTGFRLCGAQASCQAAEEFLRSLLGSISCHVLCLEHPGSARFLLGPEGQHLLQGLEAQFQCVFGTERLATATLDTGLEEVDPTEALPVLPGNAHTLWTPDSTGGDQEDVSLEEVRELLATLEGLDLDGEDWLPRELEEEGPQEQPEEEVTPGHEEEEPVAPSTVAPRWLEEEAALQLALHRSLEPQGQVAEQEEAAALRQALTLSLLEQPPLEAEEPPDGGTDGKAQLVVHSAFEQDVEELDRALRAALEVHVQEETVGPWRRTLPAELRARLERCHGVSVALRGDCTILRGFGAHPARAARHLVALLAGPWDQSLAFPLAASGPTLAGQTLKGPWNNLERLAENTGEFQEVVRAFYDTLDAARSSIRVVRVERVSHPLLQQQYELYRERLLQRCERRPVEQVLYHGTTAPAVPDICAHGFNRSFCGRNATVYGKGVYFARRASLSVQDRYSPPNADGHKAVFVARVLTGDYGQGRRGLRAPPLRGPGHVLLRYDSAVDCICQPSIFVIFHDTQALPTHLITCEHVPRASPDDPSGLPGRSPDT

[8] = target: T3, Protein mono-ADP-ribosyltransferase PARP12 (Homo sapiens, UniProt Q9H0J9)
T3 sequence (Q9H0J9 whole entry): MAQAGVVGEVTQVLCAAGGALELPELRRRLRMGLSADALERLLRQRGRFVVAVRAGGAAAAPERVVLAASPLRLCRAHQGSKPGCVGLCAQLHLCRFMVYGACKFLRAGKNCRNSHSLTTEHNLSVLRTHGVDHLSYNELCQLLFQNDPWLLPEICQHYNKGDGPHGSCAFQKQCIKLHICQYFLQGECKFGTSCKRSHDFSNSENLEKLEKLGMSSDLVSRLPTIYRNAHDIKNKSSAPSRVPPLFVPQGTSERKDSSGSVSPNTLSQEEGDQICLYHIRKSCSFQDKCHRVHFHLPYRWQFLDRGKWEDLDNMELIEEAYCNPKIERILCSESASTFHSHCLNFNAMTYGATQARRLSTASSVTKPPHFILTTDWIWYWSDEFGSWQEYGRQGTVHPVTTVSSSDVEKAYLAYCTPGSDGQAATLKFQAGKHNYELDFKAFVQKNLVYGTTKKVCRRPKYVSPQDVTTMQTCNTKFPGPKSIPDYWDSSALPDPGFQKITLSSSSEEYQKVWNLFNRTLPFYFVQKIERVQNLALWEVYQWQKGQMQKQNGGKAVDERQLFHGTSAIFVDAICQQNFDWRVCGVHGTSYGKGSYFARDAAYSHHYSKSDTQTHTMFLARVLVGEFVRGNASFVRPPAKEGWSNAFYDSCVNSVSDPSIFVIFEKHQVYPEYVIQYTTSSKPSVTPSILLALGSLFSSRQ

Cytochrome P450 3A4 = Cytochrome P450 3A4 (Homo sapiens, UniProt P08684)

## CCOc1ccc(-c2nnc([C@H]3C[C@H](NC(=O)c4ccccn4)C3)n2-c2ccccc2F)nc1
[1]
  t1/2: 40.2 min
[2]
  IC50: > 10 µM
[3]
  IC50: > 10 µM
[4]
  IC50: > 10 µM
[5]
  IC50: > 10 µM
[6]
  IC50: > 10 µM
[7]
  IC50: > 10 µM
[8]
  IC50: > 10 µM
Cytochrome P450 3A4
  IC50: > 25 µM

Reference: ChEMBL document CHEMBL4616677, “Preclinical Lead Optimization of a 1,2,4-Triazole Based Tankyrase Inhibitor” (J Med Chem, 2020)
